According to patent publication US11667658B2, “Chemical synthesis of the organoarsenical antibiotic arsinothricin” (The Florida International University Board of Trustees, priority 2021, dated 2023):

Target: T1, E. coli glutamine synthetase (Escherichia coli, UniProt P0A9C5)
T1 construct: purchased Millipore-Sigma
T1 sequence (P0A9C5 2-469 limits assumed): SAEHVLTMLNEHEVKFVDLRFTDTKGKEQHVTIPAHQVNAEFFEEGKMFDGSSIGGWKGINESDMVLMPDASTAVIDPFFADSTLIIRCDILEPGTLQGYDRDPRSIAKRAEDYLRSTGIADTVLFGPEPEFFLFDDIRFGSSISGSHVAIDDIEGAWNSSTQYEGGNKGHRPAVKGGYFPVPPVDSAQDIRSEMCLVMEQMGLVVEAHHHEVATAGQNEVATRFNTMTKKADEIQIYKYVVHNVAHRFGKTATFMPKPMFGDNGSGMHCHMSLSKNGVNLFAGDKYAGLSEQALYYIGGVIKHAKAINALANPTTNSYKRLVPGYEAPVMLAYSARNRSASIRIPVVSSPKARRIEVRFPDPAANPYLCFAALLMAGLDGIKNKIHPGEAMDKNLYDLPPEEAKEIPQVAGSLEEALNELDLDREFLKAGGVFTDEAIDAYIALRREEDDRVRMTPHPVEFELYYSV
Test: Assay of Glutamine Synthetase (GS) Inhibition, coupled assay
Type: biochemical
Conditions: GS from E. coli, L-glutamate 5-50 mM, 0.5 or 2.0 μM AST, 37° C.
Method: Assay of Glutamine Synthetase (GS) Inhibition. Inhibition of GS activity by bAST, sAST or D,L-AST was analyzed by a coupled assay using GS from E. coli (Millipore-Sigma), as described previously, with minor modifications. Briefly, the GS reaction was initiated by addition of L-glutamate (5, 10, 20 or 50 mM) to the reaction mixture (100 mM Tris-acetate (pH 8.6), 9 mM ATP, 1 mM phosphoenolpyruvate, 60 mM Mg2Cl, 19 mM KCl, 45 mM NH4Cl, 0.25 mM NADH, 13-20 units of L-lactic dehydrogenase, 8-14 units of pyruvate kinase and 1 unit of GS) and incubated at 37° C. in the absence or presence of 0.5 or 2.0 μM of bAST, sAST or D,L-AST, and the decrease in A340 nm was monitored to quantify oxidation of NADH to NAD^+ using an extinction coefficient 6230 M^−1cm^−1. Activities were corrected with the values from control assays without enzyme. The inhibition constant (Ki) for each AST was determined based on the apparent Km of GS using Sigma Plot (Systat Software, Inc., Sun Jose, Calif.).

Row | Structure (SMILES) | Ki (listed as L-bAST) [nM] | Ki (listed as D/L-sAST) [nM]
1 | C[As](=O)(O)CCC(N)C(=O)O (centres unmarked) [bAST] | 300 ± 100 | 
2 | C[As](=O)(O)CCC(N)C(=O)O (centres unmarked) [sAST] |  | 650 ± 200
